The source of these data is patent publication US11497751B2, “Modulators of Rho-associated protein kinase” (Redx Pharma PLC, priority 2018, dated 2022).

Sequences of proteins named here, by UniProt entry; tags and fusion partners are left off. Residues count along the entry.
UniProt O75116, 11-552 limits assumed: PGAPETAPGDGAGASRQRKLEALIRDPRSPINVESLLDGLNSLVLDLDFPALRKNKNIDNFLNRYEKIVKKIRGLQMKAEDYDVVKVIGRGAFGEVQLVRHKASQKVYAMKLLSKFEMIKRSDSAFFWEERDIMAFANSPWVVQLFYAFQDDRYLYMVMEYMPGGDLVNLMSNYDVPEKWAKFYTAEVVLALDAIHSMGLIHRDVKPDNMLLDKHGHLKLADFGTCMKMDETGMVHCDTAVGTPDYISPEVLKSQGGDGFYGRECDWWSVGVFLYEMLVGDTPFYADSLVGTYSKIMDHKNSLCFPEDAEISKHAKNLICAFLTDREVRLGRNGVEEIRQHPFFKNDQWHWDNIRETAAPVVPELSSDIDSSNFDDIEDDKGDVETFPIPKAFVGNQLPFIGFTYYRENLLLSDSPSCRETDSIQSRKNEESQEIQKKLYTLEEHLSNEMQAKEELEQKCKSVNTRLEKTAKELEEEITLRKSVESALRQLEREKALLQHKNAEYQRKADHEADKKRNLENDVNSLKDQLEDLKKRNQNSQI

This test has as its target N-terminal 6His-tagged ROCK2 catalytic domain 11-552 (Homo sapiens, UniProt O75116). Briefly: ROCK2 binding activity: ROCK2 inhibition, ADP-Glo Kinase Assay. The settings on record: read-out: ADP-Glo kinase activity assay ROCK2 Category; 1.25 nM ROCK2, 100 μM long S6 peptide, 20 μM ATP; 1 hour pre-incubation. How it is done: Assay for ROCK2 inhibition was performed using the protein construct N-terminal 6His-tagged ROCK2 catalytic domain 11-552 (Dundee University, UK). Protein was purified from a baculovirus expression system. Long S6 peptide ([…]) was used as substrate. Kinase reactions were carried out in 15 μl volume in a 96-well plate (black, half area) using 1.25 nM constitutively active ROCK2 kinase, 100 μM long S6 peptide, 20 μM ATP and test compound in DMSO (or DMSO only for controls). The final concentration of DMSO was 1%. Assay buffer was 50 mM HEPES pH 7.5 supplemented with 0.2 mM EDTA, 10 mM magnesium acetate, 0.01% Tween-20, 1 mM DTT and 0.01% BSA. Test compounds were pre-incubated with ROCK2 kinase for 1 hour before addition of ATP and long S6 peptide. After incubation for a further 1 hour, the amount of ADP produced was measured using ADP-Glo Kinase Assay (Promega) as per manufacturer's instructions. The luminescence was measured on a PHERAstar FS (BMG Labtech). The concentration of test compound required to inhibit ADP production by 50% (the IC50) was calculated using a four-parameter logistic function with software by Dotmatics.
The category “+” refers to compounds with a ROCK2 IC50 value of >10 μM. The category “++” refers to compounds with a ROCK2 IC50 value of 10 to 3 μM. The category “+++” refers to compounds with a ROCK2 IC50 value of 3 to 0.3 μM. The category “++++” refers to compounds with a ROCK2 IC50 value of <0.3 μM.
In general terms: ADP-Glo first removes unused ATP, then detects ADP through luciferase.

Regarding `CN1CCN(Cc2ccc(-c3nc(Nc4ccc5[nH]ncc5c4Cl)n(C)n3)cc2)CC1`, the IC50 was in the range of 300 to 3000 nM.

For `COc1cc(-c2nc(Nc3ccc4[nH]ncc4c3Cl)n(C)n2)ccc1C(=O)NC(C)C(F)(F)F` (stereo not drawn), the IC50 was less than 300 nM.

Take `COc1ncccc1-c1nc(Nc2ccc3[nH]ncc3c2Cl)n(C)n1`: the IC50 fell in the range of 300 to 3000 nM.

For the molecule `Cn1nc(-c2ccc(N3CCOCC3)nc2)nc1Nc1ccc2[nH]ncc2c1Cl`, the IC50 was less than 300 nM.

Take `COc1ccc(-c2nc(Nc3ccc4[nH]ncc4c3)nn2C)cc1OC`: the IC50 fell in the range of 3000 to 10000 nM.

For the molecule `Cn1nc(-c2cccc(O)c2)nc1Nc1ccc2[nH]ncc2c1Cl`, the IC50 is less than 300 nM.

With `CC(C)NC(=O)CN1CCCc2cc(-c3nc(Nc4ccc5[nH]ncc5c4Cl)n(C)n3)ccc21`, the IC50 fell in the range of 300 to 3000 nM.

On to `COc1cccc(-c2nc(Nc3ccc4[nH]ncc4c3Cl)n(C)n2)c1`, for which the IC50 was less than 300 nM.

With `Cn1nc(-c2ccc(C(=O)NCC(F)F)cc2)nc1Nc1ccc2[nH]ncc2c1C1CC1`, the IC50 is less than 300 nM.

On to `Cn1nc(Br)nc1Nc1ccc2[nH]ncc2c1Cl`, for which the IC50 was 3000 to 10000 nM.

In the case of `COc1cc(-c2nc(Nc3ccc4[nH]ncc4c3Cl)n(C)n2)ccc1CNC(C)=O`, the IC50 was 300 to 3000 nM.

In the case of `Cc1cc2cn[nH]c2cc1-c1nc(Nc2ccc3[nH]ncc3c2Cl)n(C)n1`, the IC50 was in the range of 300 to 3000 nM.

`CC(C)CNC(=O)c1ccc(-c2nc(Nc3ccc4[nH]ncc4c3C3CC3)n(C)n2)cc1`: the IC50 was less than 300 nM.

Regarding `CC(NC(=O)c1ccc(-c2nc(Nc3ccc4[nH]ncc4c3C3CC3)n(C)n2)cc1)C(F)(F)F` (stereo not drawn), the IC50 is less than 300 nM.

Consider `Cn1nc(C2=CCNCC2)nc1Nc1ccc2[nH]ncc2c1Cl`, for which the IC50 was less than 300 nM.
